Assay results from ChEMBL document CHEMBL5500409, “Discovery of 5-(Piperidin-4-yl)-1,2,4-oxadiazole Derivatives as a New Class of Human Caseinolytic Protease P Agonists for the Treatment of Hepatocellular Carcinoma” (J Med Chem, 2024).

What was measured:
in vivo [1] = conditions: rat, po, 15 mg/kg
in vivo [2] = conditions: rat, po, 15 mg/kg; remark: listed apart in the source
in vivo [3] = conditions: Balb/c, mouse, ip
HCCLM3 [4] = assay: animal or person; conditions: Mus musculus, HCCLM3, 672 h, read-out: TGI
in vivo [5] = conditions: rat, iv, 5 mg/kg
in vivo [6] = conditions: rat, po, 15 mg/kg; remark: listed apart in the source
HCCLM3 [7] = assay: animal or person; conditions: Mus musculus, HCCLM3, 672 h, read-out: TGI; remark: listed apart in the source
HCCLM3 [8] = assay: animal or person; conditions: Mus musculus, HCCLM3, 672 h, read-out: TGI; remark: listed apart in the source
in vivo [9] = conditions: rat, iv, 5 mg/kg; remark: listed apart in the source
in vivo [10] = conditions: rat, iv, 5 mg/kg; remark: listed apart in the source
in vivo [11] = conditions: rat, iv, 5 mg/kg; remark: listed apart in the source
in vivo [12] = conditions: Balb/c, mouse, ip, 400 mg/kg
HCCLM3 [13] = assay: animal or person; conditions: Mus musculus, HCCLM3, 672 h, read-out: TGI; remark: listed apart in the source
in vivo [14] = conditions: rat, po, 15 mg/kg; remark: listed apart in the source
in vivo [15] = conditions: rat, po, 15 mg/kg; remark: listed apart in the source
in vivo [16] = conditions: rat, iv, 5 mg/kg; remark: listed apart in the source
HCCLM3 [17] = assay: cells; conditions: Homo sapiens, HCCLM3, 72 h, read-out: INH
in vivo [18] = conditions: rat, po, 15 mg/kg; remark: listed apart in the source

N#Cc1cccc(CN2CCC(c3nc(Cc4ccc(F)c(Cl)c4)no3)CC2)c1
AUC(0-t) (in vivo [1]): 3050 ng·h/mL | MRT last (in vivo [2]): 9.1 h | LD50 at 360 h (in vivo [3]): 400 mg/kg | inhibition in vivo at 40 mg/kg (HCCLM3 [4]): 85.2% | AUC(0-t) (in vivo [5]): 3420 ng·h/mL | Tmax (in vivo [6]): 1.4 h | inhibition in vivo at 80 mg/kg (HCCLM3 [7]): 77% | inhibition in vivo at 10 mg/kg (HCCLM3 [8]): 60.9% | MRT last (in vivo [9]): 4.5 h | clearance (in vivo [10]): 26.7 mL/min/kg | Cmax (in vivo [11]): 2100 ng/mL | mortality at 72 h (in vivo [12]): 50% | inhibition in vivo at 20 mg/kg (HCCLM3 [13]): 61.9% | half-life (in vivo [14]): 6 h | Cmax (in vivo [15]): 397 ng/mL | half-life (in vivo [16]): 4.2 h | inhibition at 10 µM (HCCLM3 [17]): 93.2% | bioavailability (in vivo [18]): 29.8%
